{"source": "patent US20230158157A1", "about": "“POTENT AND SELECTIVE DEGRADERS OF ALK” (DANA-FARBER CANCER INSTITUTE, INC., priority 2020, published 2023)", "origin": "cited, not measured here", "system": "ALK-positive tumors", "details": "ALK-positive NSCLC patients; cited from earlier work", "data": [{"compound": "CCc1cc2c(cc1N1CCC(N3CCOCC3)CC1)C(C)(C)c1[nH]c3cc(C#N)ccc3c1C2=O", "note": "[alectinib]", "values": [{"measurement": "median duration of initial response", "result": 25.7, "unit": "months"}]}, {"compound": "C[C@@H](Oc1cc(-c2cnn(C3CCNCC3)c2)cnc1N)c1c(Cl)ccc(F)c1Cl", "note": "[crizotinib]", "values": [{"measurement": "median duration of initial response", "result": 10.9, "unit": "months"}]}]}
